Results as given in BindingDB's records for US9556117.
Only a part of the results on these compounds is given; other tests are left out.

Sequences of proteins named here, by UniProt entry; tags and fusion partners are left off. A change or cut given only in a name is not applied to a line headed by its entry.
UniProt Q99572, whole entry: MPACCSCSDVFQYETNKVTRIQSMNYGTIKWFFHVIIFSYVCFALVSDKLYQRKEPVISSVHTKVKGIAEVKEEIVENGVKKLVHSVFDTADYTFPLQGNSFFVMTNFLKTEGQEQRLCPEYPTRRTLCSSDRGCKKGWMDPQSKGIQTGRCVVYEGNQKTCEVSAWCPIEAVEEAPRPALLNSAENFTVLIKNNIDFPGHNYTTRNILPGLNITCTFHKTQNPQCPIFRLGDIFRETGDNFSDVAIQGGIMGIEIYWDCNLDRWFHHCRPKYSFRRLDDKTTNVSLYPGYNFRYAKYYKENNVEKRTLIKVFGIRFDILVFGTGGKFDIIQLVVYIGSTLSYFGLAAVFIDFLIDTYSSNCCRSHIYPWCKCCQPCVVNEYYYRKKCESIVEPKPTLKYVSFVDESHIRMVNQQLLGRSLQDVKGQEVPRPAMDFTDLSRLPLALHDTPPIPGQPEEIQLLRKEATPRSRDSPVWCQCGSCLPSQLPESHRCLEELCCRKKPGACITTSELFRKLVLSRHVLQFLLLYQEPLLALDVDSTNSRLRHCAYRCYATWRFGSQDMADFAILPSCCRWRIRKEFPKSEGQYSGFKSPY

Molecular target: P2X purinoceptor 7 (Homo sapiens, UniProt Q99572)

## CN(C)C1(CNC(=O)c2ccc3[nH]ccc3c2Cl)CCCCC1
  IC50: 1080 nM
